B1: Catenin beta-1 (Homo sapiens), P35222 (parent)
chain: MATQADLMELDMAMEPDRKAAVSHWQQQSYLDSGIHSGATTTAPSLSGKGNPEEEDVDTSQVLYEWEQGFSQSFTQEQVADIDGQYAMTRAQRVRAAMFPETLDEGMQIPSTQFDAAHPTNVQRLAEPSQMLKHAVVNLINYQDDAELATRAIPELTKLLNDEDQVVVNKAAVMVHQLSKKEASRHAIMRSPQMVSAIVRTMQNTNDVETARCTAGTLHNLSHHREGLLAIFKSGGIPALVKMLGSPVDSVLFYAITTLHNLLLHQEGAKMAVRLAGGLQKMVALLNKTNVKFLAITTDCLQILAYGNQESKLIILASGGPQALVNIMRTYTYEKLLWTTSRVLKVLSVCSSNKPAIVEAGGMQALGLHLTDPSQRLVQNCLWTLRNLSDAATKQEGMEGLLGTLVQLLGSDDINVVTCAAGILSNLTCNNYKNKMMVCQVGGIEALVRTVLRAGDREDITEPAICALRHLTSRHQEAEMAQNAVRLHYGLPVVVKLLHPPSHWPLIKATVGLIRNLALCPANHAPLREQGAIPRLVQLLVRAHQDTQRRTSMGGTQQQFVEGVRMEEIVEGCTGALHILARDVHNRIVIRGLNTIPLFVQLLYSPIENIQRVAAGVLCELAQDKEAAEAIEAEGATAPLTELLHSRNEGVATYAAAVLFRMSEDKPQDYKKRLSVELTSSLFRTEPMAWNETADLGLDIGAQGEPLGYRQDDPSYRSFHSGGYGQDALGMDPMMEHEMGGHHPGADYPVDGLPDLGHAQDLMDGLPPGDSNQLAWFDTDL
partner: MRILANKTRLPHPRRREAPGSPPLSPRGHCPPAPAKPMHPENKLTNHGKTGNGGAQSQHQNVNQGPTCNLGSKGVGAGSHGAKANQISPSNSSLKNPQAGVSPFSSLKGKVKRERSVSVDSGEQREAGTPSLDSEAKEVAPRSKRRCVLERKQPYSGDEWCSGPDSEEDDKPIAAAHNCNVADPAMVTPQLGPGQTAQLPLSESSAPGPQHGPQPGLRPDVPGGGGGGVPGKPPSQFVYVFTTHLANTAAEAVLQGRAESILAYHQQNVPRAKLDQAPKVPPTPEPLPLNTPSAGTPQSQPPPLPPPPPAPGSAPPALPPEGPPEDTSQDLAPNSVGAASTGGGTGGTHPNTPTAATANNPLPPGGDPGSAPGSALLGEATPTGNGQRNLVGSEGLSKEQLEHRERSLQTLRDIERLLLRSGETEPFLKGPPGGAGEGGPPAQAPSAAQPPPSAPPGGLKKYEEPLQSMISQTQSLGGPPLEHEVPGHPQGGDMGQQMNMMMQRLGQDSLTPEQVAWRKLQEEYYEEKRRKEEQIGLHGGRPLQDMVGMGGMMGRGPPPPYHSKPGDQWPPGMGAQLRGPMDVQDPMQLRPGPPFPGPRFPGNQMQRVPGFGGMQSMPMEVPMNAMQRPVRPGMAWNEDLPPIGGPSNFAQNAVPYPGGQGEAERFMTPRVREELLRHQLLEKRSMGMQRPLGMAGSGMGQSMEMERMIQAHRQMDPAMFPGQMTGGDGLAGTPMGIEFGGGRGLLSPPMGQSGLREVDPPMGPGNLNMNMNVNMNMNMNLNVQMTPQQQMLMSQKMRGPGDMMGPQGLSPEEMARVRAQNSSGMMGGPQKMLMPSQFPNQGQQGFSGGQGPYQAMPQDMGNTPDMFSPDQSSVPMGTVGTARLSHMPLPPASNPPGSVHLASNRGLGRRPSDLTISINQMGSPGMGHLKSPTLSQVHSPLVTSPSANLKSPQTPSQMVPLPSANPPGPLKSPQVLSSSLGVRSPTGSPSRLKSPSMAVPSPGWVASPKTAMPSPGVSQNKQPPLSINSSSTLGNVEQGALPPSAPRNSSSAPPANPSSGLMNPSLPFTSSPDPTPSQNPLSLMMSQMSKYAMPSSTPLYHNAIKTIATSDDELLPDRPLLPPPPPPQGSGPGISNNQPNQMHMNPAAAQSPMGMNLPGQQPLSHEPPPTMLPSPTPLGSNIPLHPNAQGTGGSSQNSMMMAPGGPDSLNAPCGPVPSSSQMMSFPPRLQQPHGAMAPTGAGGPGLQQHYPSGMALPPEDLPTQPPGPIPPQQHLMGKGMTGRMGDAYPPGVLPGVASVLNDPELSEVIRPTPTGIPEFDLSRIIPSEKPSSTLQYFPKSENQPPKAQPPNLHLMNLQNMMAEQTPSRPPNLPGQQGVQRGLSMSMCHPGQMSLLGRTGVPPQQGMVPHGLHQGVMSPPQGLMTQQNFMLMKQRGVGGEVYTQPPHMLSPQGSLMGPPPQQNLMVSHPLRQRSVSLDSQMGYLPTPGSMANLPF

Variants of: B1
Details: with bcl9l_mouse Bcl9l

Row | effect of a mutation on the interaction | Variant
1 | with no effect | Y142E
